# Measurements taken from patent publication US20240117005A1, “NOVEL BICYCLIC PEPTIDES” (THE COUNCIL OF THE QUEENSLAND INSTITUTE OF MEDICAL RESEARCH, priority 2021, published 2024).
# System: MCF-7 cells
# Experiment: RNA-seq differential expression, DL-2 vs. Stimulated
# Assay type: cell-based, human
# Conditions: MCF-7, DL-2 vs. Stimulated (PMA)
# Text: RNA-sequencing (RNA seq) data were obtained from human breast cancer cell line MCF-7 with and without DL-2 treatment. A total of 9 samples from […] experimental groups were collected, as follows: • Control (non-stimulated control, Ctrl) (n=3); • Stimulated (PMA stimulated control) (n=3); • DL-2 (treated with DL-2 and stimulated with PMA) (n=3); For the DL-2 treatment group, the MCF-7 cells were exposed to DL-2 first, then stimulated with PMA thereafter. RNA-seq data were generated, fastq data were downloaded to the QIMR Berghofer server, and then archived to the HSM by Scott Wood. Sequence reads were trimmed for adapter sequences using Cutadapt (version 1.9; Martin (2011)) and aligned using STAR (version 2.5.2a; Dobin et al. (2013)) to the GRCh37 assembly with the gene, transcript, and exon features of Ensembl (release 70) gene model. […] In our analysis, we corrected for library size by dividing each sample's gene count by million reads mapped. […] Note that the inputs for DE analysis are the filtered but not normalised read counts, since edgeR performs normalisation (library size and RNA composition) internally. The […]( ) function was used to fit a quasi-likelihood negative binomial generalised log-linear model to the read counts for each gene. […]
smiles,measurement,value
CCCCCCCCCCCCCC(=O)NC(C)C(=O)NC1CSCc2cc3cc(c2)CSC[C@H](NC(=O)[C@H](Cc2ccccc2)NC(=O)[C@H](C(C)CC)NC(=O)[C@H](Cc2ccccc2)NC(=O)[C@H]([C@@H](C)O)NC(=O)C(CC(C)C)NC1=O)C(=O)N[C@@H](CCCNC(C)=N)C(=O)N[C@@H](CC(C)C)C(=O)N[C@@H](CCCNC(=N)N)C(=O)N[C@@H](CCCCN)C(=O)NCC(=O)N[C@@H](CCCNC(=N)N)C(=O)NC(C(=O)N[C@@H](CCSC)C(=O)NC(CCSC)C(=O)N[C@@H](CC(=O)O)C(=O)NC(C(=O)N[C@@H](CCCCN)C(=O)NC(CCCCN)C(=O)O)C(C)C)CSC3 (mixture of isomers),logFC RDX,−0.9705
